# AlphaSeq binding of Ab-14 heavy chain variants to a spike HR2 peptide

Data: MIT Lincoln Laboratory AlphaSeq set, Engelhart et al. 2022, doi:10.1038/s41597-022-01779-4, as distributed in FLAb.

Binding partner: SARS-CoV-2 spike HR2 peptide, sequence PDVDLGDISGINAS.

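Phage display of a naive human antibody library on the peptide gave the parent. The library (AAYL49) carries one to three amino acid substitutions per variant, with no insertions or deletions. The assay is AlphaSeq: two haploid yeast populations carry antibody and antigen on their surface. After mating in shaken culture at 30 °C for 16 h, diploids were selected and their barcode pairs sequenced. Read counts were normalised to the haploid input and turned into Kd by a linear fit to BCL2-family pairs of known affinity, for each replicate. There are three technical replicates.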

Parent: Ab-14, a human scFv built as VH, the linker GGGGSGGGGSGGGGS, VL. Only the CDRs of the heavy chain vary.
VH: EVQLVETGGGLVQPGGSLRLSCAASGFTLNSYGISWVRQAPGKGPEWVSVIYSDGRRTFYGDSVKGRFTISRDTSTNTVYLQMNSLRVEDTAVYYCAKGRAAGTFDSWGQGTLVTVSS
VL: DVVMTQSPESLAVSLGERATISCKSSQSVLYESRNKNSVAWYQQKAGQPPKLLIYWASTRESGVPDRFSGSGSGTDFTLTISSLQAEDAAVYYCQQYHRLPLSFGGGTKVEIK

Changes read parent residue, position, new residue, counted from the first residue of the VH shown. The Kd shown is the geometric mean over detected replicates; a lower Kd is a better binder. "nd" marks a missing value. The strain was present, yet no cells mated with the target were sequenced in any replicate, which points to weak or no binding.

{"changes": "S35W Y60F T104F", "Kd (apparent)": "70 µM", "replicates with signal": "2 of 3", "signal with controls": "3 of 9"}
{"changes": "S63A A101R", "Kd (apparent)": "290 nM", "replicates with signal": "3 of 3", "signal with controls": "2 of 9"}
{"changes": "L29E Y52E K65V", "Kd (apparent)": "nd", "replicates with signal": "0 of 3", "signal with controls": "0 of 9"}
{"changes": "V50L G55T Y60P", "Kd (apparent)": "1.7 mM", "replicates with signal": "1 of 3", "signal with controls": "5 of 9"}
{"changes": "L29F D62I F105E", "Kd (apparent)": "7.1 µM", "replicates with signal": "2 of 3", "signal with controls": "2 of 9"}
{"changes": "R57Q A102E", "Kd (apparent)": "2.6 µM", "replicates with signal": "1 of 3", "signal with controls": "2 of 9"}
{"changes": "G99D A102N", "Kd (apparent)": "nd", "replicates with signal": "0 of 3", "signal with controls": "2 of 9"}
{"changes": "T28G S31A Y52C", "Kd (apparent)": "300 nM", "replicates with signal": "1 of 3", "signal with controls": "0 of 9"}
{"changes": "L29I T58C G103R", "Kd (apparent)": "nd", "replicates with signal": "0 of 3", "signal with controls": "1 of 9"}
{"changes": "G26E R56A A102V", "Kd (apparent)": "nd", "replicates with signal": "0 of 3", "signal with controls": "1 of 9"}
{"changes": "F27I D54P Y60L", "Kd (apparent)": "6.0 µM", "replicates with signal": "3 of 3", "signal with controls": "4 of 9"}
{"changes": "T28A R57L T58M", "Kd (apparent)": "170 µM", "replicates with signal": "1 of 3", "signal with controls": "0 of 9"}
{"changes": "F27S R57L K65L", "Kd (apparent)": "8.9 µM", "replicates with signal": "1 of 3", "signal with controls": "0 of 9"}
{"changes": "S53Y R57L V64Q", "Kd (apparent)": "2.9 µM", "replicates with signal": "1 of 3", "signal with controls": "2 of 9"}
{"changes": "G33W D54C R100V", "Kd (apparent)": "nd", "replicates with signal": "0 of 3", "signal with controls": "1 of 9"}
{"changes": "D62I S63E", "Kd (apparent)": "nd", "replicates with signal": "0 of 3", "signal with controls": "1 of 9"}
{"changes": "S35I R100K S107H", "Kd (apparent)": "6.6 µM", "replicates with signal": "1 of 3", "signal with controls": "1 of 9"}
{"changes": "F59S V64C T104W", "Kd (apparent)": "700 nM", "replicates with signal": "3 of 3", "signal with controls": "4 of 9"}
{"changes": "S31C S53P A101N", "Kd (apparent)": "1.4 µM", "replicates with signal": "3 of 3", "signal with controls": "4 of 9"}
{"changes": "S53P Y60C G103N", "Kd (apparent)": "37 µM", "replicates with signal": "2 of 3", "signal with controls": "0 of 9"}
{"changes": "D62R K65R D106Y", "Kd (apparent)": "860 nM", "replicates with signal": "3 of 3", "signal with controls": "2 of 9"}
{"changes": "G33M G61W A101F", "Kd (apparent)": "nd", "replicates with signal": "0 of 3", "signal with controls": "1 of 9"}
{"changes": "F27N F59C", "Kd (apparent)": "nd", "replicates with signal": "0 of 3", "signal with controls": "2 of 9"}

For reference, 3 entries of the list once more:

{"changes": "S35I R100K S107H", "Kd (apparent)": "6.6 µM", "replicates with signal": "1 of 3", "signal with controls": "1 of 9"}
{"changes": "F59S V64C T104W", "Kd (apparent)": "700 nM", "replicates with signal": "3 of 3", "signal with controls": "4 of 9"}
{"changes": "F27N F59C", "Kd (apparent)": "nd", "replicates with signal": "0 of 3", "signal with controls": "2 of 9"}

Empty control strains, which show no peptide, gave a signal in 15% of pairings with library AAYL49; the median was 11 µM and 95% of these signals were weaker than 680 nM. No background was subtracted. The control count says in how many pairings with the empty strains this scFv gave a signal. In this assay the parent's reference entry averaged 4.4 nM; its copy inside this library read 13 µM (one replicate of three).